According to PMC9234963, “Optimizing Shape Complementarity Enables the Discovery of Potent Tricyclic BCL6 Inhibitors” (Journal of Medicinal Chemistry, 2022):

Target: human BCL6 BTB domain (Homo sapiens, UniProt P41182)

Cn1c(=O)c2c(c3cc(Nc4ccnc(Cl)c4C#N)ccc31)N[C@@H](C1CC1)CCO2 [Compound 12a, (R)-2-Chloro-4-((2-cyclopropyl-7-methyl-6-oxo-1,2,3,4,6,7-hexahydro-[1,4]oxazepino[2,3-c]quinolin-10-yl)amino)nicotinonitrile]
BCL6 TR-FRET mean pIC50 (mean of replicates): 7.41 | IC50 (read-out: BCL6 TR-FRET IC50, geometric mean of replicates): 39 nM
